The numbers were not newly measured in PMC12197660 (Viruses, 2025), which cites them from elsewhere.

For this series the following is noted: read-out: Plasma GS-441524 Cmax; GS-441524 IV 30 min infusion 20 mg/kg; mean ± SD, N = 3; cited from earlier work.

Regarding `N#C[C@@]1(c2ccc3c(N)ncnn23)O[C@H](CO)[C@@H](O)[C@H]1O` [GS-441524], the Cmax was 79.2 µM.

The term Cmax denotes the highest concentration seen after dosing.
